# Data published in PubChem BioAssay AID493091 (Sanford-Burnham Center for Chemical Genomics, 2011).
# Sequences of proteins named here, by UniProt entry; tags and fusion partners are left off. Residues count along the entry.
# UniProt Q9GZU7, 76-261 limits assumed: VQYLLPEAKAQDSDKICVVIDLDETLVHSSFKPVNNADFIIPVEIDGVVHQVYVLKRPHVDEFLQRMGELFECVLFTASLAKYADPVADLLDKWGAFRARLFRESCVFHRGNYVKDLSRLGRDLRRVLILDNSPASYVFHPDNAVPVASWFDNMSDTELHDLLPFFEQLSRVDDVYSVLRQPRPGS
# The list shows a part of the results, in another mix than the full data. Calls of active or inactive are those of the source.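 Rule for the calls: active = inhibition above about 50% at 20 µM (limit read from the data); inactive = the rest.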
# Target: Carboxy-terminal domain RNA polymerase II polypeptide A small phosphatase 1 (Homo sapiens) (UniProt Q9GZU7)
# Assay: inhibition of human SCP1 dephosphorylation activity – biochemical, colorimetric, uHTS, primary screen (AID 493091);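 note: plate controls were DMSO wells with enzyme for no effect and wells lacking enzyme for full effect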
# Details: Recombinant Scp1, phosphopeptide, malachite green phosphate absorbance; at 20 µM; active compounds read high
row,SMILES,inhibition
1,CCC(=O)N(c1ccccc1)C1(COC)CCN(CCc2cccs2)CC1,inactive: -3.18%
2,CCC(=O)N(c1ccccc1)C1(COC)CCN(CCn2nnn(CC)c2=O)CC1,inactive: -3.18%
